Measured values published in PubChem BioAssay (NCI).
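Growth conditions: 96-well plates. Treatment: test compound, 48 hours, 5 concentrations. Analysis: linear interpolation between bracketing concentrations; unreached endpoints set to highest concentration. TGI is the concentration that stops growth completely.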

Columns and labels:
Assay in all cases: NCI-60 cell line screen, 48 h
EKVX NSCLC = test system: EKVX NSCLC
TK-10 renal = test system: TK-10 renal
OVCAR-3 ovarian = test system: OVCAR-3 ovarian
SK-OV-3 ovarian = test system: SK-OV-3 ovarian
SF-295 CNS = test system: SF-295 CNS
K-562 leukemia = test system: K-562 leukemia
UO-31 renal = test system: UO-31 renal
SW-620 colon = test system: SW-620 colon
A549 NSCLC = test system: A549 NSCLC
OVCAR-4 ovarian = test system: OVCAR-4 ovarian
MOLT-4 leukemia = test system: MOLT-4 leukemia
NCI/ADR-RES ovarian = test system: NCI/ADR-RES ovarian
IGROV1 ovarian = test system: IGROV1 ovarian
MCF7 breast = test system: MCF7 breast
OVCAR-5 ovarian = test system: OVCAR-5 ovarian
LOX IMVI melanoma = test system: LOX IMVI melanoma
HOP-92 NSCLC = test system: HOP-92 NSCLC
786-0 renal = test system: 786-0 renal
SN12C renal = test system: SN12C renal
HCC-2998 colon = test system: HCC-2998 colon
NCI-H23 lung = test system: NCI-H23 lung
COLO 205 colon = test system: COLO 205 colon
SK-MEL-28 melanoma = test system: SK-MEL-28 melanoma
U251 CNS = test system: U251 CNS
NCI-H522 lung = test system: NCI-H522 lung
A498 renal = test system: A498 renal
BT-549 breast = test system: BT-549 breast
UACC-62 melanoma = test system: UACC-62 melanoma
NCI-H322M lung = test system: NCI-H322M lung
SK-MEL-5 melanoma = test system: SK-MEL-5 melanoma
KM12 colon = test system: KM12 colon
CAKI-1 renal = test system: CAKI-1 renal
NCI-H226 lung = test system: NCI-H226 lung
MDA-MB-435 = test system: MDA-MB-435
ACHN renal = test system: ACHN renal
UACC-257 melanoma = test system: UACC-257 melanoma
RXF 393 renal = test system: RXF 393 renal
HCT-116 colon = test system: HCT-116 colon
MALME-3M melanoma = test system: MALME-3M melanoma
DU-145 prostate = test system: DU-145 prostate
MDA-MB-231 breast = test system: MDA-MB-231 breast
HCT-15 colon = test system: HCT-15 colon
HOP-62 NSCLC = test system: HOP-62 NSCLC
OVCAR-8 ovarian = test system: OVCAR-8 ovarian
HS 578T breast = test system: HS 578T breast
HT29 colon = test system: HT29 colon
PC-3 prostate = test system: PC-3 prostate
T-47D breast = test system: T-47D breast
CCRF-CEM leukemia = test system: CCRF-CEM leukemia
NCI-H460 lung = test system: NCI-H460 lung
SK-MEL-2 melanoma = test system: SK-MEL-2 melanoma
SNB-19 CNS = test system: SNB-19 CNS
HL-60(TB) leukemia = test system: HL-60(TB) leukemia
MDA-N = test system: MDA-N
SF-268 CNS = test system: SF-268 CNS
M14 melanoma = test system: M14 melanoma

## CN(C)CCn1c(Cn2nnc3ccccc32)nc2cc(C(F)(F)F)ccc21
EKVX NSCLC
  TGI: > 100 µM
TK-10 renal
  TGI: > 100 µM
OVCAR-3 ovarian
  TGI: > 100 µM
SK-OV-3 ovarian
  TGI: > 100 µM
SF-295 CNS
  TGI: > 100 µM
K-562 leukemia
  TGI: 92.5 µM
UO-31 renal
  TGI: > 100 µM
SW-620 colon
  TGI: > 100 µM
A549 NSCLC
  TGI: > 100 µM
OVCAR-4 ovarian
  TGI: > 100 µM
MOLT-4 leukemia
  TGI: 65.9 µM
NCI/ADR-RES ovarian
  TGI: > 100 µM
IGROV1 ovarian
  TGI: > 100 µM
MCF7 breast
  TGI: > 100 µM
OVCAR-5 ovarian
  TGI: > 100 µM
LOX IMVI melanoma
  TGI: > 100 µM
HOP-92 NSCLC
  TGI: > 100 µM
786-0 renal
  TGI: > 100 µM
SN12C renal
  TGI: > 100 µM
HCC-2998 colon
  TGI: 32.7 µM
NCI-H23 lung
  TGI: > 100 µM
COLO 205 colon
  TGI: 43.1 µM
SK-MEL-28 melanoma
  TGI: > 100 µM
U251 CNS
  TGI: > 100 µM
NCI-H522 lung
  TGI: > 100 µM
A498 renal
  TGI: 58.4 µM
BT-549 breast
  TGI: > 100 µM
UACC-62 melanoma
  TGI: > 100 µM
NCI-H322M lung
  TGI: > 100 µM
SK-MEL-5 melanoma
  TGI: > 100 µM
KM12 colon
  TGI: > 100 µM
CAKI-1 renal
  TGI: > 100 µM
NCI-H226 lung
  TGI: > 100 µM
MDA-MB-435
  TGI: > 100 µM
ACHN renal
  TGI: > 100 µM
UACC-257 melanoma
  TGI: > 100 µM
RXF 393 renal
  TGI: > 100 µM
HCT-116 colon
  TGI: > 100 µM
MALME-3M melanoma
  TGI: 37.6 µM
DU-145 prostate
  TGI: > 100 µM
MDA-MB-231 breast
  TGI: > 100 µM
HCT-15 colon
  TGI: > 100 µM
HOP-62 NSCLC
  TGI: > 100 µM
OVCAR-8 ovarian
  TGI: > 100 µM
HS 578T breast
  TGI: > 100 µM
HT29 colon
  TGI: > 100 µM
PC-3 prostate
  TGI: > 100 µM
T-47D breast
  TGI: > 100 µM
CCRF-CEM leukemia
  TGI: 58.3 µM
NCI-H460 lung
  TGI: > 100 µM
SK-MEL-2 melanoma
  TGI: > 100 µM
SNB-19 CNS
  TGI: > 100 µM
HL-60(TB) leukemia
  TGI: 50.1 µM
MDA-N
  TGI: > 100 µM
SF-268 CNS
  TGI: > 100 µM
M14 melanoma
  TGI: 36.1 µM
